In general, inhibition refers to the drop in the measured response relative to a control, in per cent.

Sequences of proteins named here, by UniProt entry; tags and fusion partners are left off. A change or cut given only in a name is not applied to a line headed by its entry.
UniProt Q9H3R0: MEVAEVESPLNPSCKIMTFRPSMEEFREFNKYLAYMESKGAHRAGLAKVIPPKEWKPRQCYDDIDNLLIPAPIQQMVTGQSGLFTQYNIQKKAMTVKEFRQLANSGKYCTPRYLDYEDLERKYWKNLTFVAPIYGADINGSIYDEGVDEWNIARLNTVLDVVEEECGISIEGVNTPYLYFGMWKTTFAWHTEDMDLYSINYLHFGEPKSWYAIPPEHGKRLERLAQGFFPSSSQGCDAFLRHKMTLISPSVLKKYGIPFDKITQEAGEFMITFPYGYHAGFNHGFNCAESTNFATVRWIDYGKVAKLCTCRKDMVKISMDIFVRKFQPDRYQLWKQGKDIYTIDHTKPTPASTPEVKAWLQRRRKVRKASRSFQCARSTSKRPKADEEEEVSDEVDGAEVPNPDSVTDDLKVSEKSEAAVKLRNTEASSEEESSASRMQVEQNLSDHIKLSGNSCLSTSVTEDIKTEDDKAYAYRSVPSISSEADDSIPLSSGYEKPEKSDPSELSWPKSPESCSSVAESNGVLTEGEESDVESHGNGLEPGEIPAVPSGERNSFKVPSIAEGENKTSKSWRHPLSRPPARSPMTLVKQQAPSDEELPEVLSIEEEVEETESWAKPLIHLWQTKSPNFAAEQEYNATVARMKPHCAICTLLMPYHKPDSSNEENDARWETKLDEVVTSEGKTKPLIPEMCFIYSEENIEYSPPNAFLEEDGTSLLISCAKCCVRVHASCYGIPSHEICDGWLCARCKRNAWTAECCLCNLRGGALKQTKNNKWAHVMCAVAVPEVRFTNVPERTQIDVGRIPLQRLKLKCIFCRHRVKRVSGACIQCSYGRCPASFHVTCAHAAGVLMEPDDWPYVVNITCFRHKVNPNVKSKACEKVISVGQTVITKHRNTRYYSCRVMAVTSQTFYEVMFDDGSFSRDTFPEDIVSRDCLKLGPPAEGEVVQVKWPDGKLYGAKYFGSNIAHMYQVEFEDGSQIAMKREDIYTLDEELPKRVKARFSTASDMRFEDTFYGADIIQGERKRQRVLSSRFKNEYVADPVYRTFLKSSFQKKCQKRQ

Data on 46 compounds can be found in PubChem BioAssay AID2099 (Broad Institute, 2009).

The list shows a part of the results, in another mix than the full data. The source made the active and inactive calls.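 Rule for the calls: active = more than half of a compound's replicate wells show inhibition beyond 50%, single wells judged on their own value; inconclusive = some, but no more than half, of replicates pass 50% inhibition; inactive = no replicate passes 50% inhibition.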

This test addresses Lysine-specific demethylase 4C (Homo sapiens) (UniProt Q9H3R0). The test can be described thus: JMJD2C H3K9me3 demethylation blockers – biochemical, fluorescence, DELFIA europium, primary screen (AID 2099).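 Note: signal counts dimethyl H3K9 product captured on neutravidin plate; 0% = median of DMSO wells and 100% = 0.3 times that DMSO median.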 Conditions: GST-JMJD2C(1-420) H3K9me3 demethylation, at 2.35 µM, stronger effect = higher value.
Consider `COc1ccc(C2=NCC(CBr)S2)cc1` (stereo unspecified), for which the inhibition is inactive: -29.2%.
Next, `Cc1ccc(NP(=O)(Oc2ccccc2)Oc2ccccc2)nc1`: inactive: 15.7%; `O=[N+]([O-])c1cc([N+](=O)[O-])c(CCNc2ccccc2)c([N+](=O)[O-])c1`: inactive: -6.06%.
In the case of `CCc1nc2c(n1)c1c(non1O)c1c2no[n+]1[O-]`, the inhibition was inactive: -2.42%.
For `CC(=O)N1C2C3N(C(C)=O)C1C1N(C(C)=O)C(C(N1C(C)=O)N3C(C)=O)N2C(C)=O`, the inhibition was inactive: -8.47%.
Regarding `O=[N+]([O-])c1cccc2n[nH]nc12`, the inhibition is inactive: -8.24%.
Next, `CCN(/C(=N/P(=O)(N1CCOCC1)N1CCOCC1)N1CCOCC1)c1ccc(OC)cc1`: inactive: -10.3%.
As for `Nc1ccc([As](=O)(O)c2ccc(N)cc2)cc1`, the inhibition was inactive: -2.95%.
Next, `C[N+]1=C2C=CC=CC=C2SC12C([N+](=O)[O-])=CC([N+](=O)[O-])=C[C-]2[N+](=O)[O-]` (stereo unspecified): inactive: -12.3%; `CC1CCN(C(=O)Oc2c(Cl)cc(Cl)c3cccnc23)CC1`: inactive: 24.3%.
Turning to `CC(C)=N/N=C(\N)N[N+](=O)[O-]`, the inhibition was inactive: 0.379%.
To `CN(C)C(=O)OCCc1n(C)cc[n+]1C` belongs inactive: 3.94%; to `O=P(Nc1nccs1)(c1ccccc1)c1ccccc1`, inactive: 8.27%; to `CC(C)C(=O)NC(Sc1ccccc1)C(Cl)(Cl)Cl` (stereo unspecified), inactive: 5.31%.
For the compound `c1nnnn1CCn1cnnn1`, the inhibition was inactive: 2.77%.
To `CN(C)C1(CNC(=O)c2ccc(Cl)c(S(N)(=O)=O)c2)CCCCC1` belongs inactive: 6.41%.
Next, `O=P(Nc1ccccn1)(c1ccc(Br)cc1)c1ccc(Br)cc1`: inactive: 12.2%.
`O=P(Nc1nc2ccccc2s1)(c1ccccc1)c1ccccc1`: the inhibition is inactive: 3.28%.
For `C[C@H]1OP(=O)(Oc2ccccc2)[C@H](O)[C@H](O)[C@H]1N=[N+]=[N-]` (stereo partly specified), the inhibition is inactive: 39%.
As for `O=[As](O)(c1ccccc1)c1ccc(O)cc1`, the inhibition was inactive: 17.5%.
For `CC(=O)NC(SC(=S)N(C)C)C(Cl)(Cl)Cl` (stereo unspecified), the inhibition was inactive: -2.99%.
To `O=[N+]([O-])c1ccc(O)c(/C=N/Nc2ccc([N+](=O)[O-])cc2[N+](=O)[O-])c1` belongs inactive: 1.04%.
Next, `O=C(OC1CN2CCC1CC2)c1cccc(Cl)c1` (stereo unspecified): inactive: -0.346%; `C(Cc1nn[nH]n1)Cc1nn[nH]n1`: inactive: 6.72%.
To `Nc1ccc([As](=O)(O)c2ccc([N+](=O)[O-])cc2)cc1` belongs inactive: 2.38%; to `c1ccc(-c2nn[nH]n2)c(-c2nn[nH]n2)c1`, inactive: -1.72%; to `Cc1ccc(NP(=O)(Oc2cccc(C)c2)Oc2cccc(C)c2)nc1`, inactive: -6.8%.
Regarding `CCOC(=O)NC(Sc1ccccc1)C(Cl)(Cl)Cl` (stereo unspecified), the inhibition is inactive: 5.1%.
Next, `O=C(NC1CCS(=O)(=O)C1)NP(=S)(Oc1ccccc1)Oc1ccccc1` (stereo unspecified): inactive: -23.8%.
To `CCNC(=S)/N=C(\N)N[N+](=O)[O-]` belongs inactive: -7.21%; to `O=C(OC1CN2CCC1CC2)c1ccccc1` (stereo unspecified), inactive: 66.4%; to `CCC(=O)N1C2C3N(C(=O)CC)C1C1N(C(=O)CC)C(C(N1C(=O)CC)N3C(=O)CC)N2C(=O)CC`, inactive: 1.31%.
On to `COC(=O)c1cc2c(s1)N=C(c1ccccc1)N(C)P2(=O)N1CCOCC1` (stereo unspecified), for which the inhibition is inactive: 19.8%.
Take `CC(=O)NC(SC(=S)N(CC(C)C)CC(C)C)C(Cl)(Cl)Cl` (stereo unspecified): the inhibition is inactive: 5.38%.
Next, `Cc1ccc(OP(=O)(Nc2ccccn2)Oc2ccc(C)cc2)cc1`: inactive: -10.2%.
Turning to `CC(NC(=O)COC(=O)C(O)(c1ccccc1)c1ccccc1)c1ccccc1` (stereo unspecified), the inhibition is inactive: 8.64%.
For the compound `Cc1ccccc1OP(=O)(Nc1ccccn1)Oc1ccccc1C`, the inhibition was inactive: 0.205%.
For `CN(C)C(=O)Oc1noc2ccccc12`, the inhibition was inactive: -5.61%.
In the case of `O=P1(Nc2nc3ccc(Cl)cc3s2)COc2ccccc2O1` (stereo unspecified), the inhibition was inactive: 1.53%.
Consider `CCOc1ccc(C2=NCC(CBr)S2)cc1` (stereo unspecified), for which the inhibition is inactive: 9.95%.
To `CC(C)(C)C(=O)NC(Sc1ccccc1)C(Cl)(Cl)Cl` (stereo unspecified) belongs inactive: 0.872%.
Turning to `C[C@H]1OP(=O)(Oc2ccccc2)C[C@@H]2O[C@@H]21` (stereo partly specified), the inhibition was inactive: 26.2%.
As to `C[C@@H]1C=CCP(=O)(Oc2ccccc2)O1` (stereo partly specified), the inhibition was inactive: -2.76%.
To `CC(=O)c1ccc(N2CC2c2ccncc2)cc1` (stereo unspecified) belongs inactive: -5.6%; to `CC(=O)Nc1ccc([As](=O)(O)O)c(O)c1`, inactive: 27.5%.
On to `CC(=O)Nc1ccc(Oc2c([N+](=O)[O-])cc([N+](=O)[O-])cc2[N+](=O)[O-])cc1`, for which the inhibition is inactive: -0.937%.
